Our source for the IC50 values is ChEMBL document CHEMBL1128099, “Morphinan cyclic imines and pyrrolidines containing a constrained phenyl group: High affinity opioid agonists” (1995).

By UniProt entry, the sequences of proteins in these tests, tags left out.
UniProt P41144, whole entry: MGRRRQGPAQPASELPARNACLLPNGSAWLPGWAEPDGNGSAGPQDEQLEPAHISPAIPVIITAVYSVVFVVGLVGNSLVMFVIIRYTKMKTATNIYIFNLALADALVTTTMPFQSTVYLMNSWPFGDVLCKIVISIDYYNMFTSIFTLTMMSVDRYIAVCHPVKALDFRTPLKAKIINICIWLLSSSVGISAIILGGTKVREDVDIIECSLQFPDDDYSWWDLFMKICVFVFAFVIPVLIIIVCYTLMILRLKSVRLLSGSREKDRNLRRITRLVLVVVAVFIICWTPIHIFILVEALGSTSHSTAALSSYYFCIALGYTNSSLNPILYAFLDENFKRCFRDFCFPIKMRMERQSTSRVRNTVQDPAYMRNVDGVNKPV
UniProt P97266, whole entry: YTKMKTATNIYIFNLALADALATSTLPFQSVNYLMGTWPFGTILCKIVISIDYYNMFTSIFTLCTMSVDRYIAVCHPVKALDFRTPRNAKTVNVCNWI

Assay [1] addresses T1, Kappa-type opioid receptor (Cavia porcellus, UniProt P41144). Description: Compound was tested for its ability to displace [3H]U-69593 from Opioid receptor kappa 1 in hartley guinea pig brain membrane in the presence of 100 nM of U-69,593.
The target in a further assay is Mu-type opioid receptor (Cavia porcellus, UniProt P97266). The experiment in a line: Compound was tested for its ability to displace [3H]DAMGO from mu opioid receptor in hartley guinea pig brain membrane in the presence of 100 nM of DAMGO.
Assay [2] deals with T1, Kappa-type opioid receptor. The experiment in a line: Compound was tested for its ability to displace bremazocine from Opioid receptor kappa 2 in hartley guinea pig brain membrane.

By IC50 is commonly meant the midpoint of a concentration-inhibition curve. With `COc1ccc2c(c1OC)[C@]13CC[N+](C)(C)[C@H](C2)[C@]12C=C[C@]1(OC)[C@H]3N=C(c3ccccc3)[C@]1(C)C2`, the IC50 in assay [1] is 4.67 nM; on Mu-type opioid receptor, 0.56 nM; in assay [2], 380 nM.
For `COC12C=CC34C[C@@]1(C)C(c1ccccc1)=N[C@H]2C31CCN(C)C4Cc2ccc(O)cc21`, the IC50 in assay [1] came out at 0.52 nM; in assay [2], 6.2 nM.
On to `CO[C@]12C=C[C@]34C[C@@]1(C)[C@H](c1ccccc1)N(C)[C@H]2C31CCN(C)C4Cc2ccc(O)cc21`, for which the results for the IC50 in assay [1] and in assay [2] were 0.52 nM and 9.2 nM, respectively.
Take `CO[C@@]12C=C[C@]34C[C@]1(C)[C@@H](c1ccccc1)N[C@H]2[C@@]31CCN(C)[C@@H]4Cc2ccc(O)cc21`: the IC50 in assay [1] turned out to be 0.26 nM; in assay [2], 2.6 nM.
As to `COc1ccc2c(c1O)C13CCN(C)C(C2)C12C=CC1(OC)[C@H]3N=C(c3ccccc3)[C@]1(C)C2`, the IC50 in assay [1] turned out to be 16.8 nM; in assay [2], 320 nM.
Taken in the same sequence, the figures for `CCOc1ccc(C2=N[C@H]3C45CCN(C)C(Cc6ccc(OC)c(O)c64)[C@]54C=C[C@@]3(OC)[C@@]2(C)C4)cc1` were 96.9 nM and 331 nM.
